# Target: hT1R2/T1R3 taste receptor (Homo sapiens, UniProt Q7RTX0+Q8TE23)
# Sequences of proteins named here, by UniProt entry; tags and fusion partners are left off. Residues count along the entry.
# UniProt Q7RTX0, 21-852 limits assumed: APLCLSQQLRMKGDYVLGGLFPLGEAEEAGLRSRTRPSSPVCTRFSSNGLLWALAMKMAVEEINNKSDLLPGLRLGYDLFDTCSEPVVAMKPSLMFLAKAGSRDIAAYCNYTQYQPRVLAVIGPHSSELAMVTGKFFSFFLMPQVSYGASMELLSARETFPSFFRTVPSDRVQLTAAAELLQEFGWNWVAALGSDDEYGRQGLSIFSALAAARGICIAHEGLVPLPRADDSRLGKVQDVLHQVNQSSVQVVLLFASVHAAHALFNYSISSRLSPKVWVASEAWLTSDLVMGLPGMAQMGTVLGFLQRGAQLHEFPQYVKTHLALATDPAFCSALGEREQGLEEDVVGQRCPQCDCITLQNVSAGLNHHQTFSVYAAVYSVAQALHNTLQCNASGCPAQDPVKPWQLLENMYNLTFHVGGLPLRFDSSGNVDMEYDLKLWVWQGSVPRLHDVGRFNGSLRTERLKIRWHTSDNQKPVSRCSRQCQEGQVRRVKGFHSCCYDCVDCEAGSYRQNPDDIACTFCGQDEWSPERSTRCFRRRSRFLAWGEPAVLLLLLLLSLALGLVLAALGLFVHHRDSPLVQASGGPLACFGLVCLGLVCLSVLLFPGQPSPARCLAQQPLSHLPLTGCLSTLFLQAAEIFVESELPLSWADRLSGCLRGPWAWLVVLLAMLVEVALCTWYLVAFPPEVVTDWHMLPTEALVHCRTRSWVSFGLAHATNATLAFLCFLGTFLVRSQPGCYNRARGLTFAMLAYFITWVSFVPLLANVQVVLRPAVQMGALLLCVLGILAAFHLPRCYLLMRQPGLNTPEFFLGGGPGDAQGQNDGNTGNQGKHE
# UniProt Q8TE23, 20-839 limits assumed: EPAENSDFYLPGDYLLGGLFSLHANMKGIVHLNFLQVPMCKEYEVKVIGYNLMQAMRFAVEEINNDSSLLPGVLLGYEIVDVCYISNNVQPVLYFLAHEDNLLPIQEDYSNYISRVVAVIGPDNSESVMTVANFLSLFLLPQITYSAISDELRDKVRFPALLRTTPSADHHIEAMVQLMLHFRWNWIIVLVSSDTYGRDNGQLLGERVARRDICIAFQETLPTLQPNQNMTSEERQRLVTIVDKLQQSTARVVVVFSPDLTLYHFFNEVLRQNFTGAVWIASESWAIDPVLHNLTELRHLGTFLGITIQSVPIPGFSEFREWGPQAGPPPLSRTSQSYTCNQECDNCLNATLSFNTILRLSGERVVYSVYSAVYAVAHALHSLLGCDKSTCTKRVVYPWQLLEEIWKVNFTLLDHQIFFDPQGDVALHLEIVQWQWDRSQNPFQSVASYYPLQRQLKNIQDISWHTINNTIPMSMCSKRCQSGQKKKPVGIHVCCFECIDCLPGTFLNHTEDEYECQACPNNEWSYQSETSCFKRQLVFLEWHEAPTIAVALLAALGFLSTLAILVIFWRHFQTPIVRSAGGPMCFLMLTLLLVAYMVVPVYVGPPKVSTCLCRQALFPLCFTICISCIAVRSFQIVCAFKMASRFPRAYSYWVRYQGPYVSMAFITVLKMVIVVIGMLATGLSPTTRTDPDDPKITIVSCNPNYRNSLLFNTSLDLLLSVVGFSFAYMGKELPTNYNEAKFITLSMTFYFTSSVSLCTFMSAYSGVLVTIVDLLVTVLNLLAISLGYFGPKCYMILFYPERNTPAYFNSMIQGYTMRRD
# Assay: agonist activity against the hT1R2/T1R3 taste receptor (sweet receptor based assay)
# Details: read-out: Sweet EC50
# Experimental: Compounds described in this application show moderate to potent agonist effect on the sweet receptor based assay. Potencies (EC50 values, e.g. see Tables 1-3) for agonist activity were measured against the hT1R2/T1R3 taste receptor. FIG. 1 exemplifies the data generated during the screening to determine EC50 values.
smiles,measurement,value
CC(C)[C@H](C)NC(=O)C(C)(C)N1CCC(c2ccccc2)CC1,EC50,4.8 µM
